# Screens (PubChem)
# TDP1 inh: inhibitors of human tyrosyl-DNA phosphodiesterase TDP1 | Potency, µM (top dose mostly 130 µM), inactives show at the highest dose activity change, negative = inhibition, actives largely listed as inhibitors | recombinant TDP1, AlphaScreen DNA substrate cleavage | actives 0.28% (n = 350,000); also: potency is read from the fitted curve at half-maximal effect; % is scaled to controls: 0 for no effect and ±100 for the full control effect; nearly all actives have a fitted effect of over 40% in size
#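 Steps: enzyme plus compound, 15 min RT; add biotin/phosphotyrosine-FITC oligonucleotide (15 nM final), react 5 min; add donor/acceptor beads (10 ug/ml final), 10 min; read AlphaScreen. Tdp1 at 1 nM final.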
# TDP1 cell noCPT: qHTS for Inhibitors of human tyrosyl-DNA phosphodiesterase 1 (TDP1): qHTS in cells in absence of CPT. Potency, µM (top dose mostly 46.2 µM), for the others: at the top dose activity change, negative = growth inhibition, most hits filed as inhibitors. actives 15% (n = 420,000). DT40 Tdp1-/- hTDP1 cells, no CPT, ATP luminescence, 48 h; also: potency is read from the fitted curve at half-maximal effect; % is scaled to controls: 0 for no effect and ±100 for the full control effect; nearly all actives have a fitted effect of over 55% in size
#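 No-CPT arm: Tdp1-/-;hTDP1 DT40 cells (400/well) plus compounds, incubated ≥48 hr at 37 °C. Readout CellTiter-Glo luminescence.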
# uPA surface inh: blocks generation of uPA at the cell surface. cell surface uPA generation assay, qHTS. Potency, µM (doses to about 38.3 µM), inactives show at the highest dose activity change, negative = inhibition, hits mostly inhibitors. actives 0.31% (n = 330,000). AID 540303; active = well fitted inhibition curve with a large enough effect; inconclusive = small, poorly fitted or top-dose-only effect; inactive = no such curve, though single readings can be large or run the other way; tested in mouse RAW 264.7 cells; also: potency is read from the fitted curve at half-maximal effect; % is scaled to controls: 0 for no effect and ±100 for the full control effect; nearly all actives have a fitted effect of over 55% in size
# TDP1 cell CPT: DT40-hTDP1 cell growth loss with CPT. actives 12% (n = 420,000). Potency, µM (doses to about 46.2 µM), for inactives: top-dose activity change, negative = growth inhibition, most hits filed as inhibitors. AID 686979. chicken DT40 Tdp1-/-;hTDP1 cells + 20 nM CPT, ATP luminescence, 48 h; also: potency is read from the fitted curve at half-maximal effect; % is scaled to controls: 0 for no effect and ±100 for the full control effect; nearly all actives have a fitted effect of over 55% in size
#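 Cell growth measured by CellTiter-Glo luminescence after a minimum 48 h, 37 C compound exposure with 20 nM CPT in Tdp1-knockout DT40 cells stably expressing hTDP1, seeded 400/well; qHTS titration format.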
# miR-21 FLuc: miR-21 reporter, rising signal; Potency, µM (titrated, usually from 38.3 µM), without a hit: at the highest dose reporter change, positive = more light; AID 2288; 340,000 tested, under 10 active; HeLa miR-21 FLuc reporter, luciferase, 48 h; active = well fitted rising curve with a large enough effect; inconclusive = small, poorly fitted or top-dose-only effect; inactive = no such curve, though single readings can be large or run the other way;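 note: % of control where 0% means no effect; miR-21 action dims this reporter so a rising signal means less miR-21 action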
#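 HeLa cells stably expressing CMV-driven firefly luciferase with a downstream miR-21 binding sequence, endogenously expressing miR-21, were treated with titrations (up to about 40uM final) for 48 hours at 37 degree Celsius. Luciferase luminescence was read after lysis.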
# * = called active by the depositor; u = inconclusive; x = not tested or not shown; [ ] = dose if it differs, or a comment. In the library only some 16% were active in any assay of this set; here they are far more common. Unless noted, calls follow the shape of the dose curve; as a rule, active = well fitted curve in the direction sought with a large enough effect; inconclusive = small, poorly fitted or top-dose-only effect, or another doubt; inactive = no such curve, though single readings can be large; an effect the other way counts as inactive or inconclusive.
SMILES,TDP1 inh,TDP1 cell noCPT,uPA surface inh,TDP1 cell CPT,miR-21 FLuc
CCCC(=O)N1CCN(c2ccc(NC(=O)c3ccc(Br)o3)cc2)CC1,2%,-17%,12%,-15%,1%
CS(=O)(=O)N1CCN(c2ccc(NC(=O)c3cc4ccccc4o3)cc2)CC1,3%,5%,9%,-26%,-24%
CCC(=O)N1CCN(c2ccc(NC(=O)c3ccc([N+](=O)[O-])o3)cc2)CC1,0%,21µM*,-15%,4.6µM*,-10%
CC(C)(C)C(=O)N1CCN(c2ccc(NC(=O)c3ccc([N+](=O)[O-])o3)cc2)CC1,5%,6.5µM*,-11%,2.6µM*,-8%
CS(=O)(=O)N1CCN(c2ccc(NC(=O)c3ccc([N+](=O)[O-])o3)cc2)CC1,0%,7.3µM*,u,2.6µM*,-44%
CCOc1ccc(S(=O)(=O)N(C)CC(=O)NCCN2CCOCC2)cc1,x,-22%,7%,-16%,-1%
C=CCn1c(O)c(CN2CCN(Cc3ccccc3)CC2)c(C)c(C#N)c1=O,-1%,-16%,11%,-11%,-4%
O=S(=O)(c1ccc(-c2csc(=Nc3ccccc3)n2CCCN2CCOCC2)cc1)N1CCOCC1,9%,u,2%,u,0%
COc1ccc(S(=O)(=O)Nc2ccccc2C(=O)N2CCOCC2)cc1F,4%,10%,0%,7%,2%
CC1CCN(C(=O)c2ccc([N+](=O)[O-])o2)CC1,x,-13%,-7%,u,12%
CC1CCN(c2ccc(NC(=O)c3ccc([N+](=O)[O-])o3)cc2)CC1,x,3.3µM*,3.2µM*,4.6µM*,x
COc1ccc(CNC(=O)c2ccc(SC)cc2OC)cc1,2%,-18%,-2%,-28%,-23%
COc1cc(SC)ccc1C(=O)Nc1cccc(C)n1,-1%,5.8µM*,-8%,u,-3%
COc1cc(SC)ccc1C(=O)NCCc1ccccc1,8%,-107%,-9%,15µM*,-39%
COc1cc(SC)ccc1C(=O)Nc1ccc(C)cc1,6%,u,x,-18%,-51%
COc1cc(SC)ccc1C(=O)Nc1ccc(Br)cn1,5%,13µM*,u,u,-15%
COc1cc(SC)ccc1C(=O)Nc1ccccn1,x,-29%,-17%,-12%,-6%
COc1cc(SC)ccc1C(=O)Nc1ncc(C)s1,3%,u,3.5µM*,u,u
Cc1ccccc1NC(=O)CSc1nn2c(=O)c(C)nnc2s1,2%,2%,0%,-17%,-2%
CCC(C)(C)NC(=O)CN(C(=O)CCC(=O)Nc1nccs1)c1cccc(C)c1,3%,-6%,5%,3%,1%
CCOc1cc(/C=N/NC(=O)Cn2nc([N+](=O)[O-])cc2C)cc(Br)c1OCc1ccccc1F,5%,u,x,21µM*,0%
Cc1nnc(N/N=C\c2ccc(-c3cccc(C(=O)O)c3)o2)n1N,50µM*,-6%,u,u,-10%
CCOC(=O)c1cccc(-c2ccc(C=O)o2)c1,-5%,u,1%,u,-49%
O=Cc1ccc(-c2cccc(C(=O)O)c2)o1,45µM*,-13%,0%,6%,-20%
Cc1c(Cl)cccc1-n1ncc(C(=O)Nc2ccc(F)cc2F)c1C1CCN(C(=O)OC(C)(C)C)CC1,7%,15µM*,x,u,u
Cc1c(Cl)cccc1-n1ncc(C(=O)N2CCC(C)CC2)c1C1CCN(C(=O)OC(C)(C)C)CC1,-1%,21µM*,x,u,-7%
Cc1c(Cl)cccc1-n1ncc(C(=O)NC2CCCC2)c1C1CCN(C(=O)OC(C)(C)C)CC1,3%,21µM*,x,u,-5%
Cc1c(Cl)cccc1-n1ncc(C(=O)NC2CCCCC2)c1C1CCN(C(=O)OC(C)(C)C)CC1,3%,u,x,u,-3%
COc1cc(/C=C/C(=O)OCC(=O)NCc2cccs2)ccc1OC(F)F,0%,4%,1%,-7%,-5%
COc1ccc(NC(=O)CN2C(=O)c3ccccc3S2(=O)=O)cc1OC,9%,1%,1%,1%,2%
COC(=O)c1ccccc1NC(=O)CCn1nc(C)c2c(C)n(-c3ccccc3)nc2c1=O,0%,-23%,x,-26%,1%
CCc1ccccc1NC(=O)Cn1nc(C)c2nn(-c3ccc(Cl)cc3)c(C)c2c1=O,5%,15µM*,x,u,-2%
COC(=O)c1ccccc1NC(=O)Cn1nc(C)c2nn(-c3ccc(Cl)cc3)c(C)c2c1=O,3%,26µM*,x,21µM*,0%
N#C/C(=C\c1cc2ccccc2nc1N1CCOCC1)C(=O)Nc1ccc(N2CCOCC2)cc1,3%,16µM*,9%,13µM*,1%
N#CC(C#N)=Cc1cc2ccccc2nc1N1CCOCC1,3%,10µM*,-2%,13µM*,-9%
CCOC(=O)/C(C#N)=C/c1cc2ccccc2nc1N1CCCCC1,5%,u,0%,-34%,-10%
CCCCCCCCCCCCCCCC(=O)NC(C)C,-4%[56.1 µM],0%,x,8%,x
CC(NC(=O)COC(=O)C1CC1C)c1ccccc1 (stereo not drawn),0%,0%,9%,-5%,x
COCCN(C(C)=O)c1nnc(-c2cnccn2)s1,0%,-3%,0%,-12%,-9%
Cc1ccc(S(=O)(=O)NCCCC(=O)N2CCC(C)CC2)cc1,x,-24%,0%,1%,0%
COc1cc(/C=C(/C#N)C(=O)Nc2ccc(Cl)cc2)ccc1Oc1nc(Cl)ncc1F,0%,-27%,-1%,9.2µM*,0%
COc1cc(/C=C(\C#N)C(=O)Nc2ccc(C(=O)O)cc2)ccc1OC(=O)c1cccc(F)c1,50µM*,-14%,1%,-2%,1%
COc1cc(/C=C(/C#N)C(=O)Nc2ccccc2)ccc1OCc1ccc(C(=O)O)cc1,-13%,u,-10%,-22%,-18%
COc1ccc(CNC(=O)Cn2ncc3c(=O)oc4ccccc4c32)c(OC)c1,0%,-23%,x,-26%,-4%
O=c1ccn(Cc2ccccc2)c2ccccc12,0%,13µM*,-10%,12µM*,12%
O=C1CSC2(C(=O)N3CCCc4cccc2c43)N1c1cccc(C(F)(F)F)c1 (stereo not drawn),3%,u,x,21µM*,-1%
Cc1cccc(N2C(=O)CSC23C(=O)N(Cc2cccc(C(F)(F)F)c2)c2ccccc23)c1 (stereo not drawn),1%,16µM*,x,18µM*,-4%
COc1ccc(N2C(=O)CSC23C(=O)N2CCCc4cccc3c42)cc1 (stereo not drawn),5%,-3%,1%,-30%,-8%
Cc1c(Cl)cccc1NC(=O)NCc1cccnc1,1%[56.1 µM],13%,3%,1%,-14%
